Test results from PubChem BioAssay AID1347076 (National Center for Advancing Translational Sciences (NCATS), 2019).
Only a part is listed here, and it is no random draw. Records with an inconclusive call do not appear. Calls of active or inactive are those of the source. Calls follow the shape of the dose curve; as a rule, active = well fitted cell-killing curve with a large enough effect; inconclusive = small, poorly fitted or top-dose-only effect, or effect the other way; inactive = flat fitted curve, though single readings scatter.

Assay: qHTS assay for MDR1-selective chemotherapeutics: Primary screen using the drug-selected MDR subline cells KB-V1; also: nearly all actives have a fitted effect of over 60% in size
Conditions: KB-V1 MDR cells viability, CellTiter-Glo, 72 h; series mostly up to 46.1 µM; activity change, negative = cytotoxicity: at the top concentration
Summary of the method: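 Cytotoxicity via CellTiter-Glo luminescence after 72 h compound exposure at 37 degrees C. Cells: drug-selected KB-V1 line, DMEM phenol-red free plus 10% FBS. Compounds tested at multiple concentrations; normalized data fitted to concentration-effect curves.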
% is scaled to controls: 0 for no effect and ±100 for the full control effect; potency is read from the fitted curve at half-maximal effect.

Structure (SMILES) | activity change, negative = cytotoxicity | Potency
COc1ccc(C2=NCC(CBr)S2)cc1 (centres undefined) | inactive: 9.16% | 
CCC(C)N(CC(C)C)C(=S)SC(NC(C)=O)C(Cl)(Cl)Cl (centres undefined) | inactive: -0.675% | 
CCOC(=O)c1ccc(NC(=O)C(C)(CCl)SC)cc1 (centres undefined) | inactive: 1.68% | 
O=C(OC1CN2CCC1CC2)c1cccc([N+](=O)[O-])c1 (centres undefined) | inactive: 3.25% | 
O=C(COc1ccccc1)OC1CN2CCC1CC2 (centres undefined) | inactive: 8.06% | 
O=C(Nc1ccncc1[N+](=O)[O-])c1ccc([N+](=O)[O-])cc1[N+](=O)[O-] | inactive: -3.18% | 
O=C(O)C(=O)c1ccc(N(CCCl)CCCl)cc1 | inactive: 9.49% | 
COC(=O)C1(C)COP(=O)(N2CCCC2)OC1 (centres undefined) | inactive: -6.22% | 
O=[N+]([O-])c1ccc(Nc2ccc(Oc3ccc([N+](=O)[O-])cc3[N+](=O)[O-])cc2)c([N+](=O)[O-])c1 | inactive: 3.61% | 
O=P(Nc1ccccn1)(c1cccc2ccccc12)c1cccc2ccccc12 | inactive: 3.76% | 
Cc1cc(SC(NC=O)C(Cl)(Cl)Cl)ncn1 (centres undefined) | inactive: 0.867% | 
CCOC(=O)Nc1cccc([As](=O)(O)O)c1 | inactive: 11.7% | 
CCCCOc1ccc(C(=O)NCC2(N3CCCCC3)CCCCC2)cc1OC | inactive: -18.8% | 
Cc1cc(SC(NC(=O)c2ccccc2)C(Cl)(Cl)Cl)nc(C(C)C)n1 (centres undefined) | inactive: -25% | 
COP(=O)(OC)N1CC1c1ccccc1 (centres undefined) | inactive: 25.2% | 
CC1CCNP(=O)(N(CCCl)CCCl)O1 (centres undefined) | inactive: 22.2% | 
CCOC(=O)Nc1ccc([As](=O)(O)O)c(O)c1 | inactive: -0.945% | 
O=C(O)C(O)c1ccc(N(CCCl)CCCl)cc1 (centres undefined) | inactive: -1.24% | 
O=C(OC1CN2CCC1CC2)c1cccc2[nH]cnc12 (centres undefined) | inactive: -0.348% | 
CCN(CC)C(=S)SC(NC=O)C(Cl)(Cl)Cl (centres undefined) |  | active: 4.11 µM
O=[N+]([O-])c1cc([N+](=O)[O-])c(-c2ccn[nH]2)s1 | inactive: -25.1% | 
COC(=O)C1(C)COP(=O)(N2CCCCCC2)OC1 (centres undefined) | inactive: -26.8% | 
ClCCSc1nnc(-c2cccnc2)o1 | inactive: 2.01% | 
O=Cc1ccc(NCCCl)cc1 | inactive: 31.4% | 
Cc1ccc2nc3c(c(C)c2c1)CC(C(Cl)Cl)S3 (centres undefined) | inactive: -26.7% | 
[N-]=[N+]=NC1CCCCC1NC(=O)c1cc([N+](=O)[O-])cc([N+](=O)[O-])c1 (centres undefined) | inactive: -23.1% | 
Cc1ccc(OP(=O)(Nc2ccc([N+](=O)[O-])cn2)Oc2ccc(C)cc2)cc1 | inactive: 25.9% | 

Structure (SMILES) | activity change, negative = cytotoxicity | Potency
ClCCN(CCCl)c1ccc(CC2C=CC=C2)cc1 | inactive: -0.662% | 
O=[As](O)(c1ccc(O)cc1)c1ccccc1O | inactive: -4.05% | 
C[As](=O)(O)c1cccc(C(=O)O)c1 | inactive: -6.73% | 
O=[N+]([O-])c1ccc(-c2cc([N+](=O)[O-])c(O)c([N+](=O)[O-])c2)cc1 | inactive: 0% | 
COc1cc(C(=O)NCC2(N3CCOCC3)CCCCC2)ccc1OCC(C)C | inactive: -13.6% | 
COc1ccc(N/C(=N/P(=O)(N2CCOCC2)N2CCOCC2)N2CCOCC2)cc1 | inactive: -4.26% | 
O=[N+]([O-])c1cc(Oc2ccc([N+](=O)[O-])cc2C(F)(F)F)cc([N+](=O)[O-])c1 | inactive: -3.68% | 
COc1ccc2nc(NP(=O)(c3ccccc3)c3ccccc3)sc2c1 | inactive: 18.4% | 
COc1cc(I)ccc1[As](=O)(O)O | inactive: -3.85% | 
O=P1(N(CCCl)CCCl)OCCCN1CCCl (centres undefined) | inactive: -13.8% | 
O=P1(N(CCCl)CCCl)Nc2ccccc2N1 | inactive: 17.9% | 
O=C(OC1CN2CCC1CC2)C12CC3CC(CC(C3)C1)C2 (centres undefined) | inactive: -23% | 
Cc1cc(=O)[nH]c(N[N+](=O)[O-])n1 | inactive: 7.99% | 
Cc1c2c(nc3ccccc13)SC(C(Cl)Cl)C2 (centres undefined) | inactive: 3.8% | 
COc1cc(C2NCCC3(OCCO3)C2(C)C)cc(OC)c1OC (centres undefined) | inactive: 0% | 
CCOP(=O)(Nc1cccc2ccccc12)OCC | inactive: -4.27% | 
Nc1cccc2c([As](=O)(O)O)cccc12 | inactive: -1.63% | 
Cc1cccc(OCC(=O)OC2CN3CCC2CC3)c1 (centres undefined) | inactive: -4.01% | 
O=[As](O)(c1cccc(O)c1)c1cccc(O)c1 | inactive: -15.4% | 
O=[As](O)(O)c1cccnc1 | inactive: 10.6% | 
CS(=O)(=O)c1ccc(Cl)c(NC(=O)COC(=O)C(O)(c2ccccc2)c2ccccc2)c1 | inactive: 0.868% | 
O=C(OC1CN2CCC1CC2)c1ccc(Cl)cc1 (centres undefined) | inactive: 5.08% | 
O=[N+]([O-])c1ccc2c(c1)nnn2O | inactive: -0.0882% | 
CN(C(=O)Cc1ccc(Cl)c(Cl)c1)[C@H]1CC[C@@]2(CCCO2)C[C@@H]1N1CCCC1 | inactive: -29.5% | 
CCOP1(=S)c2c(C)nn(CCC#N)c2N=C(c2ccc(F)cc2)N1C (centres undefined) | inactive: -26.7% | 
CN(C(=O)Cc1ccccc1)[C@@H]1CC[C@]2(CCCO2)C[C@H]1N1CCCC1 | inactive: 0.822% | 
Nc1ccccc1[As](=O)(O)c1ccccc1 | inactive: -0.59% | 

Structure (SMILES) | activity change, negative = cytotoxicity | Potency
CS(=O)(=O)c1cc([N+](=O)[O-])c2no[n+]([O-])c2c1 | inactive: -11.2% | 
O=P(Nc1nccs1)(Oc1ccccc1)Oc1ccccc1 | inactive: 0% | 
O=[As](O)(c1cccs1)c1cccs1 | inactive: 1.85% | 
O=P1(Nc2ccc(Br)cn2)COc2ccccc2OC1 | inactive: 8.85% | 
NS(=O)(=O)c1cccc(NC(=O)COC(=O)C(O)(c2ccccc2)c2ccccc2)c1 | inactive: 7.15% | 
Nc1cccc([As](=O)(O)c2ccccc2)c1 | inactive: 4.76% | 
O=P1(Nc2ncccn2)COc2ccccc2OC1 | inactive: 4.94% | 
Cc1ccc(S(=O)(=O)N(CCCN)CCCc2c(C)nc(N)[nH]c2=O)cc1 | inactive: -8.06% | 
O=C(/C=C/c1ccccc1)OC1CN2CCC1CC2 (centres undefined) | inactive: -0.868% | 
CCCC1OP(=O)(Nc2ccccc2)OCC1CC (centres undefined) | inactive: 6.04% | 
CN(C)C1(CNC(=O)c2ccc(S(C)(=O)=O)cc2)CCCCC1 | inactive: -7.81% | 
Cc1nn(-c2ccccc2)c2c1P(=O)(N1CCOCC1)N(C)C(c1ccccc1)=N2 (centres undefined) | inactive: -15.7% | 
Cc1ccc(C(=O)OC2CN3CCC2CC3)cc1 (centres undefined) | inactive: 11.2% | 
COc1cc([N+](=O)[O-])ccc1[N+](=O)[O-] | inactive: 17.8% | 
CC1(CBr)Cn2c(nc3ccccc3c2=O)S1 (centres undefined) | inactive: -0.405% | 
CC(C)/C=N\N=C(\N)N[N+](=O)[O-] | inactive: -8.01% | 
COc1ccccc1CNC(=O)COC(=O)C(O)(c1ccccc1)c1ccccc1 | inactive: 1.07% | 
O=P1(N(CCCl)CCCl)NCCC(C(F)(F)F)O1 (centres undefined) | inactive: 7.38% | 
Clc1n[nH]nc1-c1nn[nH][15n]1 | inactive: 1.9% | 
CC(C)(C)C(=O)NC(Sc1ncccn1)C(Cl)(Cl)Cl (centres undefined) | inactive: -6.69% | 
CCOP(=O)(Nc1ccc(C)cn1)OCC | inactive: -2.52% | 
CN(CCCl)Cc1cc(Cl)c(NC2=NCCN2)c(Cl)c1 | inactive: 3.06% | 
O=P1(Nc2ccccn2)COc2ccccc2OC1 | inactive: -8.2% | 
CCC1=CC2Cc3nc4ccc(Cl)cc4c(N)c3C(C1)C2 (centres undefined) | inactive: -8.57% | 
CCOP(=O)(NC(=NC(C)c1ccccc1)NC(C)c1ccccc1)OCC (centres undefined) | inactive: 0.721% | 
